Biological target: HA–FAM134B 17KR (UniProt Q9H6L5)
Experiment: co-IP; HA–FAM134B IP (HA-agarose beads, overnight at 4 °C) from HEK 293T lysate (50 mM Tris-HCl pH 7.5, 150 mM NaCl, 0.5 mM EDTA, 1% Triton X-100, NEM), cells co-transfected with Myc–Ub; immunoblot for endogenous LC3B-II, densitometry

Substance: LC3B-II (from UniProt Q9GZQ8 1-120) (natural protein)
- fold reduction of bound LC3B-II against HA–FAM134B WT: 1.32 fold

— article PMC10247366
